Values of other authors as cited in patent US7217431B2, “Controlled agglomeration” (LifeCycle Pharma A/S, priority 2001, dated 2007).
This is a selection: effects in other tests are not listed, and their absence says nothing.

Details: Table 1 Poorly-Soluble Drug Candidates

CCC(=O)N(c1ccccc1)C1CCN(CCc2ccccc2)CC1
Solubility In Water: Sparingly
